By UniProt entry, the sequences of proteins in these tests, tags left out. Where a name states a change or a piece, a line headed by the entry shows the natural chain unless it says otherwise.
UniProt P15144: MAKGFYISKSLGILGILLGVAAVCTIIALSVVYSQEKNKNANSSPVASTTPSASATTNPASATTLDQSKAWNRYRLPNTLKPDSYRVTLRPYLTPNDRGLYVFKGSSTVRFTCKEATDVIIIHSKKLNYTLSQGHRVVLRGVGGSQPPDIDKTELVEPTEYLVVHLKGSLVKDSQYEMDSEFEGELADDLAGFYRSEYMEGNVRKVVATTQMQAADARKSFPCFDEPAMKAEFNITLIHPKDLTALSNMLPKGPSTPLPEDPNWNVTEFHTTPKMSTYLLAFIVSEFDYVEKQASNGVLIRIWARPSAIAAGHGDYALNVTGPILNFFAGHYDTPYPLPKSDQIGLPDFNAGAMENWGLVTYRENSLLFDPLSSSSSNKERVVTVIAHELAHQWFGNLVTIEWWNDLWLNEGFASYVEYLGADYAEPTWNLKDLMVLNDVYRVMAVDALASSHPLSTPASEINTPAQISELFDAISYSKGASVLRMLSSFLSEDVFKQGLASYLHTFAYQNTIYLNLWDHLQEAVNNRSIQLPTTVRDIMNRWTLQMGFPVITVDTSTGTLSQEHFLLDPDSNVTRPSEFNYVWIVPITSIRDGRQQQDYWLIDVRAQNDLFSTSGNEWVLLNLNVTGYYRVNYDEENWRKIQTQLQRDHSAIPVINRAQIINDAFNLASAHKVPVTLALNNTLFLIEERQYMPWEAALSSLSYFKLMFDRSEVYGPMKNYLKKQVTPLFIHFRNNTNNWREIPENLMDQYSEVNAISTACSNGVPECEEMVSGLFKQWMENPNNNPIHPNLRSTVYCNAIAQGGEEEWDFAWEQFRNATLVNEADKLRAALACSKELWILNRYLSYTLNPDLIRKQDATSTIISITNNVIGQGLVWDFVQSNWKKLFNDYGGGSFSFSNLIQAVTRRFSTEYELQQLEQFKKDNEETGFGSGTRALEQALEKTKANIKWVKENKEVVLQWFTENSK

According to ChEMBL document CHEMBL4190377, “Design of Aminopeptidase N Inhibitors as Anti-cancer Agents” (J Med Chem, 2018):

Target: Aminopeptidase N (Homo sapiens, UniProt P15144)

IC50: 15.5 µM
SMILES: COc1cc(/C=C/C(=O)CC(=O)/C=C/c2ccc(O)c(OC)c2)ccc1O [CURCUMIN]
